The target in the assay is firefly luciferase (Photinus pyralis, UniProt P08659).

By UniProt entry, the sequences of proteins in these tests, tags left out.
UniProt P08659, whole entry: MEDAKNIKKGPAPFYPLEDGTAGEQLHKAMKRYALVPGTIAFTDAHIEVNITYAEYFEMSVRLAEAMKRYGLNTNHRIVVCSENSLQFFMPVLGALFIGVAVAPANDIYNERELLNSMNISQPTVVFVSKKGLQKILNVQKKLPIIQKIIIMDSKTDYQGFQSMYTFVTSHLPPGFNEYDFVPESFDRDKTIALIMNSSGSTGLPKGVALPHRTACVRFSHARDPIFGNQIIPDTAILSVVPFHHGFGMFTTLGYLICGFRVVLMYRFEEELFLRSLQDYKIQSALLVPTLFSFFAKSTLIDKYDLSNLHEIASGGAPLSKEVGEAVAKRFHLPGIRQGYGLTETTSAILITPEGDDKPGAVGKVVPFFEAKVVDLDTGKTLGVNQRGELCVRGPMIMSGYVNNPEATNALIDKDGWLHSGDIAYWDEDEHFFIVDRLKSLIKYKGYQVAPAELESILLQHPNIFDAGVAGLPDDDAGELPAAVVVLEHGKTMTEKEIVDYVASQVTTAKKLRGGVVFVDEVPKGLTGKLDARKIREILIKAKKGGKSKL

The structures appear in SMILES notation.

In the case of `O=C(O)[C@H]1CSC(c2nc3ccc(O)cc3s2)=N1` [standard luciferin, luciferin], the “emitting wavelength as substrate for the firefly luciferase” value (spectrofluorometer under bioluminescent mode) is recorded as 560 nm. The same molecule registered a maximum emission wavelength (substrate for wild-type firefly luciferase, FIG. 5) of 560 nm.

These data come from patent US20220372008A1, “LUCIFERIN DERIVATIVES AND A METHOD FOR SYNTHESIS THEREOF” (VIDYASIRIMEDHI INSTITUTE OF SCIENCE AND TECHNOLOGY, priority 2019, published 2022).
